This is an account of results in PubChem BioAssay AID1021 (Emory University Molecular Libraries Screening Center, 2008).

Protein sequences, listed by entry. Tags and fused reporters are not part of them.
UniProt Q07820, whole entry, looked up: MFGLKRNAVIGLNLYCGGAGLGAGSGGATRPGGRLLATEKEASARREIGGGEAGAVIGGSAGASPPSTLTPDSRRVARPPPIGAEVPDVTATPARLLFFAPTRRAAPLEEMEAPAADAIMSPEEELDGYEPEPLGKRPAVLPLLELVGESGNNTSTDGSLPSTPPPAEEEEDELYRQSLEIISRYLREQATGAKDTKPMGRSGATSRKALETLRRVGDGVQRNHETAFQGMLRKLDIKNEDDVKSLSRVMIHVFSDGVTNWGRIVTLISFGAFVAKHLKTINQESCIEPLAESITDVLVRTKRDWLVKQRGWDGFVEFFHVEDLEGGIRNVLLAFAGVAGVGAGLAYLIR

Only a part is listed here, and it is no random draw. The source made the active and inactive calls.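 The calls were made as follows: active = compounds that cut the binding signal by more than half at the single screening dose; inactive = the rest.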

The target in this assay is Induced myeloid leukemia cell differentiation protein Mcl-1 (Homo sapiens) (UniProt Q07820). Description: Mcl-1/Bid binding inhibitors, primary screen, biochemical, TR-FRET, 1536-well (AID 1021).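 Also: His-tagged Mcl-1 with europium anti-His antibody binding Bid BH3 peptide; 0% = Mcl-1 plus peptide wells and 100% = peptide-only wells.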 Conditions: TR-FRET Mcl-1/Bid-Dy647 peptide binding, at 21.7 µM, hits give high values.
As a reminder, the inhibition is the relative decrease from the control value, in per cent. As to `Clc1ccc(Cl)c(NC2=NCC(CBr)S2)c1` (stereo not drawn), the inhibition was inactive: 3.29%.

As to `NC(=O)c1cc([N+](=O)[O-])cc([N+](=O)[O-])c1N`, the inhibition was inactive: 7.17%. The value for `Cc1ccc(N/C(=N/P(=O)(N2CCOCC2)N2CCOCC2)N2CCOCC2)cc1` was inactive: -9.92%; that for `COc1ccc(N/C(=N/P(=O)(N2CCOCC2)N2CCOCC2)N2CCOCC2)cc1` was inactive: -8%. The value for `COc1cc(I)ccc1[As](=O)(O)O` was inactive: 0.15%; that for `COc1ccc2nc(NP(=O)(c3ccccc3)c3ccccc3)sc2c1` was inactive: -18.8%. The value for `Cc1cc(=O)[nH]c(N[N+](=O)[O-])n1` was inactive: -15%; that for `O=C(OC1CN2CCC1CC2)C12CC3CC(CC(C3)C1)C2` (stereo not drawn) was inactive: 3.44%. Take `Cc1c2c(nc3ccccc13)SC(C(Cl)Cl)C2` (stereo not drawn): the inhibition was inactive: 4.27%.

On to `O=[N+]([O-])c1cc([N+](=O)[O-])c(-c2ccn[nH]2)s1`, for which the inhibition is inactive: -41.2%. As for `CC(C)NC(=O)NP(=O)(Oc1ccccc1)Oc1ccccc1`, the figure is inactive: -28.1%. For `CCN(CC)C(=S)SC(NC=O)C(Cl)(Cl)Cl` (stereo not drawn), the inhibition was inactive: -82.4%. As for `CC(C)c1ccc(OP(=O)(Nc2ccccn2)Oc2ccccc2F)cc1` (stereo not drawn), the figure is inactive: -10.4%; as for `ClCCSc1nnc(-c2cccnc2)o1`, inactive: 0.25%; as for `Cc1ccc2nc3c(c(C)c2c1)CC(C(Cl)Cl)S3` (stereo not drawn), inactive: -1.95%. The value for `Cc1ccc(OP(=O)(Nc2ccc([N+](=O)[O-])cn2)Oc2ccc(C)cc2)cc1` was inactive: -1.01%; that for `C[As](=O)(O)c1cccc(C(=O)O)c1` was inactive: -13.3%.

With `O=[N+]([O-])c1ccc(Nc2ccc(Oc3ccc([N+](=O)[O-])cc3[N+](=O)[O-])cc2)c([N+](=O)[O-])c1`, the inhibition is inactive: -17.8%.

For the compound `O=P(Nc1ccccn1)(c1cccc2ccccc12)c1cccc2ccccc12`, the inhibition was inactive: -27.2%. For `Cc1cc(SC(NC=O)C(Cl)(Cl)Cl)ncn1` (stereo not drawn), the inhibition was inactive: -57.1%. The value for `CCOC(=O)Nc1cccc([As](=O)(O)O)c1` was inactive: -1.31%; that for `Cc1cc(SC(NC(=O)c2ccccc2)C(Cl)(Cl)Cl)nc(C(C)C)n1` (stereo not drawn) was inactive: -83.3%. The value for `CCOC(=O)Nc1ccc([As](=O)(O)O)c(O)c1` was inactive: -1.53%; that for `CCC(C)N(CC(C)C)C(=S)SC(NC(C)=O)C(Cl)(Cl)Cl` (stereo not drawn) was inactive: -18%. As for `CCOC(=O)c1ccc(NC(=O)C(C)(CCl)SC)cc1` (stereo not drawn), the figure is inactive: -11.9%; as for `O=C(COc1ccccc1)OC1CN2CCC1CC2` (stereo not drawn), inactive: -24.5%.

`COP1(=S)c2c(C)nn(CCC#N)c2N=C(c2ccc(F)cc2)N1C` (stereo not drawn): the inhibition was inactive: -17%. As for `O=[As](O)(c1ccccc1Br)c1ccccc1Br`, the figure is inactive: 1.5%; as for `CC(C)/C=N\N=C(\N)N[N+](=O)[O-]`, inactive: -16.4%; as for `CN(C(=O)Cc1ccc(Cl)c(Cl)c1)[C@@H]1CCCC[C@H]1N1CCCC1`, inactive: 7.64%. As for `CC(C)(C)C(=O)NC(Sc1ncccn1)C(Cl)(Cl)Cl` (stereo not drawn), the figure is inactive: -39.7%; as for `Clc1n[nH]nc1-c1nn[nH][15n]1`, inactive: 3.02%; as for `CCOP(=O)(Nc1ccc(C)cn1)OCC`, inactive: -41.2%.

In the case of `O=P1(Nc2ccccn2)COc2ccccc2OC1`, the inhibition was inactive: -7.2%. The value for `Cc1ccc(OCC(=O)OC2CN3CCC2CC3)cc1` (stereo not drawn) was inactive: 5.29%; that for `O=[As](O)(c1cccs1)c1cccs1` was inactive: -13.3%. Turning to `O=P1(Nc2ccc(Br)cn2)COc2ccccc2OC1`, the inhibition was inactive: -22.3%. For `Nc1cccc([As](=O)(O)c2ccccc2)c1`, the inhibition was inactive: -6.71%. As for `O=P1(Nc2ncccn2)COc2ccccc2OC1`, the figure is inactive: -4.15%; as for `O=C(/C=C/c1ccccc1)OC1CN2CCC1CC2` (stereo not drawn), inactive: 5.27%. The value for `CN(C)C1(CNC(=O)c2ccc(S(C)(=O)=O)cc2)CCCCC1` was inactive: -5.17%.

`CC1CCC(C(C)C)C(OP(=O)(Nc2ccccn2)c2ccccc2)C1` (stereo not drawn): the inhibition is inactive: -14.8%. The value for `Cc1nn(-c2ccccc2)c2c1P(=O)(N1CCOCC1)N(C)C(c1ccccc1)=N2` (stereo not drawn) was inactive: -2.36%; that for `O=[N+]([O-])c1ccc2c(c1)nnn2O` was inactive: 12%; that for `CCOP1(=S)c2c(C)nn(CCC#N)c2N=C(c2ccc(F)cc2)N1C` (stereo not drawn) was inactive: -7.21%.

Take `CN(C(=O)Cc1ccccc1)[C@@H]1CC[C@]2(CCCO2)C[C@H]1N1CCCC1`: the inhibition was inactive: -32.7%. As for `NC(=O)Nc1ccc([As](=O)(O)O)cc1`, the figure is inactive: -25.2%; as for `Nc1ccccc1[As](=O)(O)c1ccccc1`, inactive: -0.67%; as for `O=C(O)COc1ccc([As](=O)(O)O)cc1[N+](=O)[O-]`, inactive: 14.6%.

With `CS(=O)(=O)c1cc([N+](=O)[O-])c2no[n+]([O-])c2c1`, the inhibition is inactive: 33.1%.

For the compound `O=P(Nc1nccs1)(Oc1ccccc1)Oc1ccccc1`, the inhibition was inactive: -24.1%.

In the case of `O=P(Nc1nccs1)(c1ccccc1)c1nc2ccccc2s1` (stereo not drawn), the inhibition was inactive: -5.48%. As for `CCOP1(=S)c2c(C)nn(CCC#N)c2N=C(c2ccccc2F)N1C` (stereo not drawn), the figure is inactive: -4.22%. The value for `CCOP(=O)(Nc1cccc2ccccc12)OCC` was inactive: -0.84%; that for `COc1cc(C2NCCC3(OCCO3)C2(C)C)cc(OC)c1OC` (stereo not drawn) was inactive: -14.2%. As for `CCCOP(=S)(Nc1nc(N)cc(=O)[nH]1)OCCC`, the figure is inactive: -106%; as for `Cc1ccc(NCCc2c([N+](=O)[O-])cc([N+](=O)[O-])cc2[N+](=O)[O-])cc1`, inactive: -65.5%; as for `Nc1cccc2c([As](=O)(O)O)cccc12`, inactive: -20.9%. On to `Cc1cccc(OCC(=O)OC2CN3CCC2CC3)c1` (stereo not drawn), for which the inhibition is inactive: 3.15%. `O=[As](O)(c1cccc(O)c1)c1cccc(O)c1`: the inhibition is inactive: -21.4%. The value for `O=[As](O)(O)c1cccnc1` was inactive: -1.81%; that for `COc1cc(C(=O)NCC2(N3CCOCC3)CCCCC2)cc(Cl)c1OC(C)C` was inactive: -21.2%. As for `O=C(OC1CN2CCC1CC2)c1ccc(Cl)cc1` (stereo not drawn), the figure is inactive: -5.32%.
